In US6399603B1, “Therapeutic heterocycles” (AstraZeneca AB, priority 1999, dated 2002):

Target: T1, recombinant human caspase-3 (Homo sapiens, UniProt P42574)
T1 construct: individual p17 and p12 subunits were subcloned by PCR into pET21a(+) plasmids; made in house; host or cells: E. coli BL21 (DE3)
T1 sequence (P42574 29-175 limits assumed): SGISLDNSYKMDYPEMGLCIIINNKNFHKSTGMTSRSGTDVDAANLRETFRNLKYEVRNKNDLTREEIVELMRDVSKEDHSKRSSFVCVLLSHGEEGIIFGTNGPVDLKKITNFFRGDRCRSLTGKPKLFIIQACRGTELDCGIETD
T1 sequence (P42574 176-277 limits assumed): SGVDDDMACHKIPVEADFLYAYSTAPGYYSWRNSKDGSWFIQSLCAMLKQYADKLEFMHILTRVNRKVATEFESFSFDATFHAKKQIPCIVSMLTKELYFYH
Experiment: Caspase-3 Inhibition Assay
Assay type: biochemical
Settings: slow binding inhibitor analysis; substrate Ac-DEVD-AMC 10 μM; n=100; read-out: apparent affinity constant Ki′ (koff/kon)

SMILES: CC(=O)N[C@@H](CC(=O)O)C(=O)N[C@@H](CCC(=O)O)C(=O)N[C@H](C(=O)N[C@H](C=O)CC(=O)O)C(C)C [Ac-DEVD-CHO]
- Ki: 6.1 ± 0.3 nM
